The test system of one data set is CD4^+ T cells. The note with it: concentrations up to 15 μg/ml IMQ; 4 days.
Another data set has as its system memory T cells. The experiment in a line: IMQ pretreatment, washout, rest and restimulation with anti-CD3 and anti-CD28. The note with it: upon IMQ pretreatment. The procedure:
Enzyme-linked immunosorbent assay.
To determine if pretreatment of CD4^+ T cells with IMQ would be sufficient to diminish their subsequent cytokine secretion and proliferative response to a full stimulation, memory T cells were pre-treated with IMQ for 2 hours and rested for 12 hours after washout to remove traces of IMQ and then stimulated with anti-CD3 and anti-CD28 for 3 days.

For the compound `CC(C)Cn1cnc2c(N)nc3ccccc3c21` [Imiquimod], the cell viability result in the data set on CD4^+ T cells is reported as “no effect”; in the data set with memory T cells it was “No significant changes”.

For the origin of these results see US10308938B2, “Compositions and methods to activate or inhibit toll-like receptor signaling” (priority 2014, dated 2019).
